# High-throughput results as filed in PubChem BioAssay.
# Shown are actives, neighbours in structure and some others; about 1.8% of the full set was active somewhere.
# AF4-AF9 inh – MLL-AF4/AF9 protein interaction inhibition; AID 651704; hit rate 0.47% among 350,000; inhibition, % at 10 µM; AlphaScreen, biotin-AF4 peptide binding to FLAG-AF9;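 active means every replicate reaching a set inhibition limit, whatever the replicate mean, cut at about 25% in these data; inconclusive means mean inhibition reaches that limit but some replicates miss it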;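 further: 0% = plate neutral control median and 100% = total signal loss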
# SIRT5 block – inhibitors of human sirtuin-5 desuccinylase | inhibition, % at 15 µM | AID 652115 | hit rate 1.1% among 330,000 | Purified SirT5, succinyl-peptide AMC, trypsin-coupled fluorescence; in the data active means inhibition above about 15%; inconclusive means no clear call, values can overlap the other calls
# RAD54 branch – inhibitors of human RAD54 branch migration. RAD54 Holliday junction branch migration, FAM/BHQ fluorescence. Q92698. inhibition, % at 10.4 µM. AID 602329. hit rate 0.14% among 360,000;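 active means mean normalized replicate activity at least 40 and at least half of replicates scoring 40 or more; inconclusive means only one of the two criteria met; inactive means mean below 40 and under half of replicates reaching 40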;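 further: 0% = median of neutral control wells and 100% = median of positive control wells; inhibitors cause a drop in the FAM fluorescence signal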
# Yeast UUG start – yeast start codon fidelity modulation | S. cerevisiae UUG-firefly luciferase reporter, luminescence/redox ratio | activity score, % at 18.7 µM | 0.13% of 350,000 active | AID 602363;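 active means replicate mean at a twofold rise or more, about +100% in these data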;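 further: firefly luciferase made from a UUG start codon reports start codon fidelity; reporter light over untreated wells divided by growth signal over untreated wells; some hits fall short of that in this replicate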
# E-sel inducer – E-selectin induction on HUVECs; HUVEC E-selectin immunofluorescence imaging; normalized: neutral wells 0, TNF-alpha wells 100; activation, % at 7.58 µM; hit rate 0.37% among 260,000; AID 686992; P16581;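 active means mean E-selectin-positive cell signal at least 10% of the positive control, reached in at least 60% of replicates, without over 20% cell loss; inconclusive means no rule given, readout overlaps actives, possibly toxicity-flagged; inactive means the rest, including those meeting only one limit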
#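 assay system = HUVEC, human umbilical vein endothelial cells | input = 3,000 HUVEC seeded per well | medium = EGM-2 growth medium on 0.1% gelatin-coated wells | dosing = one compound dose added by pin transfer | signal = immunofluorescence imaging | read-out basis = % PE-positive cells | control set = TNF-alpha, DMSO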
# RAD52 anneal inh – RAD52 (human) annealing inhibition | recombinant RAD52 DNA annealing, FRET fluorescence | P43351 | inhibition, % at 18.7 µM | hit rate 0.46% among 360,000;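 active means every replicate showing at least 50% inhibition; inconclusive means mean inhibition at least 50% but not in every replicate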
# DNA binding – counter-screen for Rad54 inhibitors: DNA binding compounds | shares compounds with RAD54 branch | Acridine orange-DNA displacement, fluorescence polarization, 20 min | AC50, µM (highest dose often 35 µM), for the others: at the highest dose activity change, negative = DNA binding | hit rate 8% among 460;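 active means signal drop giving an AC50 within twice the top valid tested concentration of each sample, actives reach about 35 µM in these data; inactive means activity opposite to expected, plus the rest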;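 further: polarization loss reports compound binding to salmon sperm DNA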
# The depositor's hits bear a star; i = inactive; ? = inconclusive; / = not tested or not shown.
nr	molecule	AF4-AF9 inh	SIRT5 block	RAD54 branch	Yeast UUG start
1	CN1CCN(c2nc(-c3cccnc3)nc3ccccc23)CC1	-16	-3	57*	-29
2	CN1CCN(c2nc(-c3ccccn3)nc3ccccc23)CC1	/	/	?	-13
3	c1cncc(-c2nc(N3CCCCCC3)c3ccccc3n2)c1	/	/	4	1
4	COc1ccc2c3c(n(C)c2c1)[C@@H](CO)N(C(=O)Cc1ccccc1)CC31CCN(C(=O)Cc2ccccc2)CC1	1	3	/	/
5	O=c1cc(CSc2n[nH]c(=O)n2C2CC2)c2ccc(O)cc2o1	-2	1	?	-9
6	Cc1ccc2[nH]c(=O)c3cc(C(=O)NCCN4CCN(C)CC4)sc3c2c1	3	/	57*	0
7	Cn1c(C(=O)NCCCN2CCc3ccccc3C2)cc2c(=O)n(C)c3ccccc3c21	4	/	19	-8
8	CCCN1CCN(CCCNC(=O)c2cc3c(=O)n(C)c4ccccc4c3n2C)CC1	-3	/	?	-4
9	CN1CCN(CCNC(=O)c2cc3c(=O)n(C)c4ccccc4c3n2C)CC1	-3	-4	64*	-23
10	CCCN1CCN(CCCNC(=O)c2cc3c(s2)-c2c(C)cccc2OC3)CC1	10	-75	39	-16

nr	E-sel inducer	RAD52 anneal inh	DNA binding
1	/	-4	-20%
2	/	/	9%
3	/	/	/
4	0	2	/
5	/	-2	-2%
6	/	26	-13%
7	0	20	/
8	1	26	-3%
9	1	19	0%
10	/	34	/

# (continued)
nr	molecule	AF4-AF9 inh	SIRT5 block	RAD54 branch	Yeast UUG start
11	Cc1cccc2c1-c1sc(C(=O)NCCCN3CCCC(C)C3)cc1CO2 (stereo unspecified)	7	-109	54*	-6
12	CC(C)NC(=O)Nc1cccc2c1O[C@@H](CN(C)S(=O)(=O)c1ccc(F)cc1)[C@H](C)CN([C@H](C)CO)C2=O	-2	-13	-2	3
13	O=C1C(c2ccc(F)cc2)N(C2CCCCC2)C(=O)CN1C1CCCC1 (stereo unspecified)	/	/	?	15
14	Cc1ccc(C2C(=O)N(C3CCC(C)CC3)CC(=O)N2C2CCCC2)cc1 (stereo unspecified)	/	/	9	-11
15	COc1cc(OC)c2nc(C)c3c(c2c1)N(c1ccc(O)cc1)CC3	/	/	51*	-6
16	Cc1ccc(S(=O)(=O)CCSc2ccc(C(F)(F)F)cn2)cc1	-3	0	?	0
17	COc1ccc(C(=O)CN2CCN(CCN3C(=O)c4cccc5cccc(c45)C3=O)CC2)cc1	/	-8	64*	-7
18	Cc1cccc(Nc2nc(N3CCN(C)CC3)nc(N)c2[N+](=O)[O-])c1	1	1	/	/
19	CCN1CCN(c2nc(N)c([N+](=O)[O-])c(Nc3cccc(C)c3)n2)CC1	?	-5	?	-1
20	CC(N)c1csc(Nc2nncc3ccccc23)n1 (stereo unspecified)	4	2	70*	-5

nr	E-sel inducer	RAD52 anneal inh	DNA binding
11	/	43	2%
12	0	5	/
13	/	/	-12%
14	/	/	/
15	/	/	-3%
16	5	-17	-2%
17	/	-6	-19%
18	/	0	/
19	2	-17	-8%
20	5	40	-1%

# Further structures.
nr	molecule	AF4-AF9 inh	SIRT5 block	RAD54 branch	Yeast UUG start
21	CCN(CC)CCNC(=O)c1cc2c(-c3ccc(Cl)cc3)nn(C)c2s1	14	/	113*	11
22	COc1ccc(CN(C)C[C@@H]2OCCCC[C@@H](C)Oc3ccc(NC(=O)CCC(F)(F)F)cc3C(=O)N([C@@H](C)CO)C[C@H]2C)cc1	-1	1	1	33
23	COc1ccc(OC)c(Nc2cc(C)nc3ccc(C)cc23)c1	5	/	20	-9
24	COc1ccc2nc(C)cc(Nc3ccc(N4CCOCC4)cc3)c2c1	/	/	?	-6
25	COc1ccc2nc(C)cc(Nc3ccc(C)cc3)c2c1	1	5	57*	-12
26	Cc1ccc(Nc2cc(C)nc3c(C)cccc23)cc1	5	4	?	-1
27	Cc1noc(C)c1NC(=O)NCC[C@H]1CC[C@@H](NC(=O)c2ccncc2)[C@H](CO)O1	2	-1	-4	-2
28	CS(=O)(=O)Nc1ccc2c(c1)[C@H]1C[C@H](CC(=O)NCc3ccc(-c4ccccc4)cc3)O[C@@H](CO)[C@H]1O2	/	/	3	2
29	CCNCCNC(=O)c1c(O)c2cccc3c2n(c1=O)CCC3	/	/	?	-13
30	CCCNC(=O)[C@H]1[C@H](CO)[C@H]2Cn3c(ccc(-c4ccccc4)c3=O)[C@H]2N1C(=O)c1ccccc1F	-1	-17	6	/

nr	E-sel inducer	RAD52 anneal inh	DNA binding
21	/	61*	i
22	0	16	/
23	1	1	/
24	/	/	-5%
25	0	36	16%
26	-2	10	-6%
27	1	3	/
28	0	/	/
29	/	/	-9%
30	0	-3	/

# (listing goes on)
nr	molecule	AF4-AF9 inh	SIRT5 block	RAD54 branch	Yeast UUG start
31	CCOC(=O)c1c(C)n(-c2ccc(OC)cc2)c2ccc(O)c(CN(C)C)c12	15	6	?	-3
32	CCOC(=O)c1c(C)n(-c2ccc(C)cc2)c2ccc(O)c(CN(C)C)c12	17	2	37	-1
33	c1cc2c3c(cccc3c1)C(N1CCCCC1)=N2	/	/	65*	-14
34	c1cc2c3c(cccc3c1)C(N1CCCCCC1)=N2	/	/	18	-10
35	CCN1CCc2c(sc(NC(=O)c3ccc(S(=O)(=O)N4CCOCC4)cc3)c2C(=O)OC)C1	/	/	80*	3
36	CN1CCc2c(sc(NC(=O)c3ccc4ccccc4c3)c2C(N)=O)C1	/	/	?	-8
37	CC(C)N1CCc2c(sc(NC(=O)c3ccc(S(=O)(=O)N4CCOCC4)cc3)c2C(N)=O)C1	-3	9	21	6
38	CCN1CCc2c(sc(NC(=O)c3ccc(C(=O)c4ccccc4)cc3)c2C(N)=O)C1	2	0	?	-3
39	COc1cc2ccccc2cc1C(=O)Nc1sc2c(c1C(N)=O)CCN(C(C)C)C2	1	0	81*	-6
40	CCOC(=O)c1c(NC(=O)c2ccc(S(=O)(=O)N3CCOCC3)cc2)sc2c1CCN(C(C)C)C2	5	5	79*	-22

nr	E-sel inducer	RAD52 anneal inh	DNA binding
31	/	44	11%
32	/	43	/
33	/	/	-20%
34	/	/	/
35	/	/	-1%
36	/	/	/
37	0	-244	/
38	/	-41	9%
39	2	-16	-23%
40	/	-241	-11%

# The results go on.
nr	molecule	AF4-AF9 inh	SIRT5 block	RAD54 branch	Yeast UUG start
41	CCN1CCc2c(sc(NC(=O)c3ccc(S(=O)(=O)N4CCOCC4)cc3)c2C(N)=O)C1	0	-1	43	-6
42	C[C@H](CO)N1C[C@H](C)[C@H](CN(C)Cc2ccc3c(c2)OCO3)Oc2ccc(NC(=O)Cc3ccccc3)cc2CC1=O	0	5	7	21
43	C[C@@H]1CN([C@@H](C)CO)C(=O)c2cc(NS(=O)(=O)c3ccc(Cl)cc3)ccc2O[C@@H]1CN(C)S(C)(=O)=O	/	/	/	-7
44	O=C(C1CC1)N1C[C@H]2[C@@H](c3ccccc31)[C@H](CO)N2C(=O)c1cccc(F)c1	/	/	3	-2
45	OC(CNc1ccnc2cc(Cl)ccc12)CNC1CCCCC1 (stereo unspecified)	5	4	/	/
46	Oc1ccc(Nc2ccnc3cc(Cl)ccc23)cc1	1	0	58*	-6

nr	E-sel inducer	RAD52 anneal inh	DNA binding
41	5	27	/
42	0	0	/
43	-2	/	/
44	0	/	/
45	/	45	/
46	0	-4	-12%

# One compound at a time (already shown). Values in the order: AF4-AF9 inh, SIRT5 block, RAD54 branch, Yeast UUG start, E-sel inducer, RAD52 anneal inh, DNA binding
# Oc1ccc(Nc2ccnc3cc(Cl)ccc23)cc1 is listed with 1, 0, 58*, -6, 0, -4, -12%
# C[C@@H]1CN([C@@H](C)CO)C(=O)c2cc(NS(=O)(=O)c3ccc(Cl)cc3)ccc2O[C@@H]1CN(C)S(C)(=O)=O is listed with /, /, /, -7, -2, /, /
# C[C@H](CO)N1C[C@H](C)[C@H](CN(C)Cc2ccc3c(c2)OCO3)Oc2ccc(NC(=O)Cc3ccccc3)cc2CC1=O is listed with 0, 5, 7, 21, 0, 0, /
# CCN1CCc2c(sc(NC(=O)c3ccc(S(=O)(=O)N4CCOCC4)cc3)c2C(N)=O)C1 is listed with 0, -1, 43, -6, 5, 27, /
